# Measured affinities in a library of Ab-91 heavy chain variants

Source: Engelhart et al. 2022 (doi:10.1038/s41597-022-01779-4), MIT Lincoln Laboratory and A-Alpha Bio; data file from the FLAb repository.

Target peptide (SARS-CoV-2 spike, HR2 region): PDVDLGDISGINAS

Parent scFv Ab-91: VL joined to VH by a (GGGGS)3 linker. Changes lie in the heavy chain CDRs alone.
VL: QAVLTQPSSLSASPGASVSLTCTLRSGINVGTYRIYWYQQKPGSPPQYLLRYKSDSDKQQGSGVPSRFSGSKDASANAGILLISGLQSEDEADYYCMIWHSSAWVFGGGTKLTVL
VH: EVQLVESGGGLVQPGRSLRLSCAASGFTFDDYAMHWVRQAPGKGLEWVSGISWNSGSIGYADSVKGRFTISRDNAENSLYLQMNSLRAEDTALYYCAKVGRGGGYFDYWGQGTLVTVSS

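Phage display of a naive human antibody library on the peptide gave the parent. Library AAYL51 holds single substitutions and randomly drawn double and triple substitutions in the CDRs. The assay is AlphaSeq: two haploid yeast populations carry antibody and antigen on their surface. After mating in shaken culture at 30 °C for 16 h, diploids were selected and their barcode pairs sequenced. Read counts were normalised to the haploid input and turned into Kd by a linear fit to BCL2-family pairs of known affinity, for each replicate. Each pool was mated in three replicate cultures.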

Positions count from residue 1 of the parent VH; S57W puts W in place of S.
Kd is apparent (estimated from mating counts) and averaged on the log scale over replicates with a signal. Smaller is tighter.
A pair that was not seen in any replicate is written "not detected"; this usually means weak binding, but a binder can also be missed.

| changes | Kd | seen in |
|---|---|---|
| S57W/Y60L/G104Q | 4.7 µM | 1/3 |
| F29E/S55C/G102I | not detected | 0/3 |
| G26E/F27D/N54H | not detected | 0/3 |
| I51P/S52K/D107W | 59 µM | 1/3 |
| V99W/D107L/Y108A | not detected | 0/3 |
| Y32V/R101L/Y108C | 1.2 µM | 3/3 |
| M34I/G102W/Y108S | 260 nM | 3/3 |
| G59R/V64Q/G100A | not detected | 0/3 |
| G56I/G103R | 200 µM | 3/3 |
| G26Q/N54H/G102D | 190 µM | 3/3 |
| F29R/S63E/G103H | not detected | 0/3 |
| G26F/A61D/G100P | not detected | 0/3 |
| A61D/Y108K | not detected | 0/3 |
| D30L/R101N/F106T | 170 nM | 2/3 |
| T28Q/A33C/Y108G | not detected | 0/3 |
| A33K/G50L/G56N | not detected | 0/3 |
| G26N/S57K/A61D | not detected | 0/3 |
| M34F/W53Q/K65F | not detected | 0/3 |
| G50I/D62R/D107V | not detected | 0/3 |
| G50T/G56P | 48 µM | 1/3 |
| I58G/K65S/D107K | 560 µM | 2/3 |
| A61I/R101P/D107N | 3.7 µM | 3/3 |
| F27D/G50S/Y105K | not detected | 0/3 |
| Y32K/G103F | 13 µM | 1/3 |
| G26K/S52W/K65E | 410 µM | 2/3 |
| H35P/I51R/V64G | not detected | 0/3 |
| A33N/S57M/G59V | not detected | 0/3 |
| G26L/D30I/D31N | 92 µM | 1/3 |
| Y32T/A61V/K65P | 29 µM | 2/3 |
| D31Q/N54A/Y108A | 38 nM | 3/3 |
| S55R/S57N | 38 µM | 1/3 |

Further variants, results first:

| Kd | seen in | changes |
|---|---|---|
| not detected | 0/3 | S57F/G59E/G103Y |
| 1.6 mM | 1/3 | G26N/S52G/V64R |
| 36 µM | 2/3 | K65D/V99D/G100R |
| 2.2 nM | 3/3 | Y32A/K65M/Y108A |
| 260 µM | 1/3 | G50W/I51H/W53P |
| 17 µM | 1/3 | G26M/F27V/V64F |
| 11 nM | 3/3 | S52A/V99E/G102S |
| not detected | 0/3 | F27L/Y60W |
| 11 µM | 2/3 | G103L/F106E |
| 26 µM | 1/3 | A33S/V99K/F106I |
| 190 µM | 1/3 | H35W/S52T/K65G |
| not detected | 0/3 | G26E/S57L/Y60C |
| 8.4 nM | 3/3 | F27D/T28S/Y105S |
| 250 µM | 2/3 | F29S/Y32A/Y108G |
| 45 µM | 2/3 | F29Y/D31E/Y32N |
| 420 nM | 3/3 | D31C/Y32C/R101D |
| 62 nM | 3/3 | V99P/G103P/F106I |
| not detected | 0/3 | S52P/G104Q/F106V |
| 1.4 nM | 3/3 | M34I/S63A/V64I |
| 18 nM | 3/3 | T28I/Y105F/F106S |
| not detected | 0/3 | T28E/A33K/N54T |
| 260 µM | 2/3 | G50D/G102F/F106Q |
| not detected | 0/3 | G59V/R101D/Y105S |
| not detected | 0/3 | M34C/Y60T/V99N |
| 21 µM | 1/3 | A33W/D62V/K65E |
| 64 nM | 3/3 | R101F/Y105T/Y108N |
| 8.4 µM | 1/3 | I58Y/G103M/D107T |
| not detected | 0/3 | F29A/W53G/I58P |
| not detected | 0/3 | G50Y/W53G/G59T |
| 160 µM | 3/3 | D30M/N54W/S57R |
| 1.2 mM | 2/3 | I51T/G56R/I58Y |

Excerpt, the first 10 entries:

| changes | Kd | seen in |
|---|---|---|
| S57W/Y60L/G104Q | 4.7 µM | 1/3 |
| F29E/S55C/G102I | not detected | 0/3 |
| G26E/F27D/N54H | not detected | 0/3 |
| I51P/S52K/D107W | 59 µM | 1/3 |
| V99W/D107L/Y108A | not detected | 0/3 |
| Y32V/R101L/Y108C | 1.2 µM | 3/3 |
| M34I/G102W/Y108S | 260 nM | 3/3 |
| G59R/V64Q/G100A | not detected | 0/3 |
| G56I/G103R | 200 µM | 3/3 |
| G26Q/N54H/G102D | 190 µM | 3/3 |

In this assay the parent's reference entry averaged 72 nM; its copy inside this library read 7.5 nM.
Three control strains display no target. For library AAYL51, 21% of the pairings with them gave a signal, with a median of 34 µM and one signal in twenty below 1.8 µM, so weak values seen in few replicates may be background.